pIC50: −log10 of the molar value.
Molecular target: Mu-type opioid receptor (Homo sapiens, UniProt P35372)
Experiment: Displacement of [3H]naloxone from mu opioid receptor expressed in BHK cells

Chains of the proteins cited; added tags and fusions are not shown.
UniProt P35372, whole entry, looked up: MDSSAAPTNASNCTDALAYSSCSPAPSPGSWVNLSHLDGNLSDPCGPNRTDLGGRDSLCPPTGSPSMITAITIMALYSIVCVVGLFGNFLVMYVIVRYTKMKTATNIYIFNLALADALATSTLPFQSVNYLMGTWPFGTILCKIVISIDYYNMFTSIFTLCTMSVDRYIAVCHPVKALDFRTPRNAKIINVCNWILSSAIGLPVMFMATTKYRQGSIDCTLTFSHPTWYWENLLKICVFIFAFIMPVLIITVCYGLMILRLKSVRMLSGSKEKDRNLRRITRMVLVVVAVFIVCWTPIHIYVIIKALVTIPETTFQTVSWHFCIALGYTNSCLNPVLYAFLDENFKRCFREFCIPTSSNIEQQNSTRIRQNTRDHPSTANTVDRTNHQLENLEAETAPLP

Compared with `O=C1NC[C@H](c2ccccc2)C12CCN([C@H]1CCCC[C@H]1c1ccccc1)CC2`, `O=C1NC[C@H](c2ccccc2)C12CCN([C@@H]1CCCC[C@@H]1c1ccccc1)CC2` is 0.20 log units lower in pIC50: 5.46 for the first, 5.26 for the second.

`O=C1NC[C@@H](c2ccc(F)cc2)C12CCN([C@H]1CCCC[C@H]1c1ccc(F)cc1)CC2` and `O=C1NC[C@@H](c2ccc(F)cc2)C12CCN([C@@H]1CCCC[C@@H]1c1ccc(F)cc1)CC2` are within 0.2 log units of each other in pIC50: 5.81 for the first, 5.96 for the second.

First: O=C1NCC(c2ccccc2)C12CCN(C1CCCCC1c1ccccc1)CC2 (stereo not drawn)
Second: O=C1NC[C@@H](c2ccccc2)C12CCN([C@H]1CCCC[C@H]1c1ccccc1)CC2
The pIC50 of the first is higher: 5.41 for the first, less than 5.00 for the second.

Going from `O=C1NC[C@H](c2ccc(F)cc2)C12CCN([C@H]1CCCC[C@H]1c1ccc(F)cc1)CC2` to `O=C1NC[C@H](c2ccc(F)cc2)C12CCN([C@@H]1CCCC[C@@H]1c1ccc(F)cc1)CC2`, the pIC50 rises from less than 5.00 to 5.17. The second is the more potent here.

Source: ChEMBL document CHEMBL1138975, “Design and synthesis of 4-substituted-8-(2-phenyl-cyclohexyl)-2,8-diaza-spiro[4.5]decan-1-one as a novel class of GlyT1 inhibitors: achieving selectivity against the mu opioid and nociceptin/orphanin FQ peptide (NOP) receptors” (Bioorg Med Chem Lett, 2006)
